Data taken from patent publication EP0812190B1 (priority 1993, dated 1995).

Protein sequences, listed by entry. Tags and fused reporters are not part of them.
UniProt P21396, whole entry: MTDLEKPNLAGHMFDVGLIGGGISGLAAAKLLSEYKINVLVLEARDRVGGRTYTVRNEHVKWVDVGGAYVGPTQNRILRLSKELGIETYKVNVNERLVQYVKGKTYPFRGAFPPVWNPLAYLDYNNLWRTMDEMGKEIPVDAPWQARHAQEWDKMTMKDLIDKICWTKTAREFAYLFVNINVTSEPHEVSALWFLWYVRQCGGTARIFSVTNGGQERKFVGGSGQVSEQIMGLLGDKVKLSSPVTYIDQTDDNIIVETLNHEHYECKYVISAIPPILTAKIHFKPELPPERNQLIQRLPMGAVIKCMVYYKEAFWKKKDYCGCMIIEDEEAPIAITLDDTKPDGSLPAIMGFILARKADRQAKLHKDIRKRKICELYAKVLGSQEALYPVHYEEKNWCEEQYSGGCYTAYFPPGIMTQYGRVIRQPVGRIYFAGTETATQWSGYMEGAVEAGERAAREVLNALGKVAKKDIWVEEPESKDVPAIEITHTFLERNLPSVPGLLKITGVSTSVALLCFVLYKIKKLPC

Target: MAO-A (Rattus norvegicus, UniProt P21396)
Assay: Inhibition of MAO activity in vivo, acute treatment, MAO-A
Parameters: MAO activity determined in brain and liver using the general technique described above; from tissue; host or cells: brain and liver of treated rats
Settings: dose used in tyramine pressor test (2 mg/kg)

C#CCN(C)CCCOc1ccc(Cl)cc1Cl [Clorgyline, reference compound]
inhibition of hepatic MAO-A activity: over 85%
